No end group written: not given here.

Test [1] addresses T1, chicken c-Src (residues 81-140) SH3 domain-GST fusion protein (chicken, UniProt P00523 81-140). The test is described as follows: fluorescence polarization, 50 nM labeled peptide, SH3-GST titrated. Background: Polarisation of emitted light reports the rotation of a fluorescent probe.
In test [2] the target is T1, chicken c-Src (residues 81-140) SH3 …. Briefly: fluorescence polarization, 50 nM labeled peptide, SH3-GST titrated; data above 50 micromolar target excluded from the fit.

B1: PP2^Flu (designed binder)
chain: APPLPPRNRGDDAPVEDLIRFYDNLQQYLNVVTRHRYC
modifications: ends and bridges not checked; also: fluorescently labeled, site and dye not given here
notes: also called PP2 (fluorescently labeled)
The term Kd denotes the equilibrium constant for the complex coming apart. In test [1], B1 yielded a Kd of 1300 nM.

B2: PP3^Flu (designed binder)
chain: APPLPPRNRPRDAPVEDLIRFYDNLQQYLNVVTRHRYC
modifications: ends and bridges not checked; also: fluorescently labeled, site and dye not given here
notes: also called PP3 (fluorescently labeled)
Take B2: in test [2], binding was characterised by a dissociation constant (Kd) of 350 nM.

B3: PP1^Flu (designed binder)
chain: APPLPPRNPGDDAPVEDLIRFYDNLQQYLNVVTRHRYC
modifications: ends and bridges not checked; also: fluorescently labeled, site and dye not given here
notes: also called PP1 (fluorescently labeled)
B3 returned a Kd in test [1] of 3680 nM.
